# Measured values: paper PMC5450702 (Toxins, 2017)
# Experiments:
# Pseudomonas aeruginosa = conditions: natural peptide
# TRPA1 [1] = test system: TRPA1
# mice [2] = conditions: 0.2 mg/kg i.v. 30 min before testing; 15 min recording; results not shown
# mice [3] = conditions: 0.2 mg/kg i.v., n = 7
# TRPA1 [4] = experiment: Fluorescent assay of calcium influx (Fluo-4), TRPA1-CHO; format: cell-based, rat; conditions: 1 µM; stably transfected CHO cells, Fluo-4, room temperature, pH 7.4
# TRPA1 [5] = experiment: Electrophysiology, TRPA1 in Xenopus laevis oocytes, diclofenac-induced currents; format: cell-based, rat; conditions: for TRPA1 inward currents potentiation / TRPA1 outward currents potentiation: mean ± SD
# Escherichia coli = conditions: natural peptide
# mice [6] = conditions: 10 μL, 50 μM solution into hind paw; 2 h experiment; hot plate 53 °C
# [7] = test system: Corynebacterium glutamicum; format: cell-based, Corynebacterium glutamicum (ATCC 13032)
# Staphylococcus aureus = conditions: natural peptide, up to 200 µM; Mueller Hinton Broth, OD595, two parallels
# human TRPV3 = conditions: 60 µM; CHO cells stably expressing receptor
# TRPA1 [8] = conditions: 240 µM, no agonist
# mice [9] = experiment: CFA-induced inflammation and thermal hyperalgesia; format: in vivo, CD-1 mice; conditions: n = 7
# rat TRPV1 = conditions: 60 µM; CHO cells stably expressing receptor
# [10] = OD595, Mueller Hinton Broth, room temperature, two parallels
# [11] = 30 min before AITC (20 µL, 0.5%), 5 min recording, versus saline
# [12] = 60 µM, 300 µM diclofenac, n = 5–7
# [13] = 120 µM, 300 µM diclofenac, n = 5–7
# [14] = 240 µM, 300 µM diclofenac, n = 5–7, "up to"
# [15] = 0.3 to 27 µM, 300 µM diclofenac, Xenopus oocytes, Ca^2+-free, 22–24 °C, n = 5–7
structure (smiles),measurement,setting,value
C[C@H](NC(=O)[C@@H]1CSSC[C@@H]2NC(=O)[C@H](CC(=O)O)NC(=O)[C@H](Cc3c[nH]cn3)NC(=O)[C@H](Cc3ccccc3)NC(=O)CNC(=O)[C@H](CO)NC(=O)[C@H](CCC(=O)O)NC(=O)[C@@H]3CSSC[C@H](NC(=O)[C@@H]4CSSC[C@H](NC(=O)[C@H](Cc5c[nH]cn5)NC(=O)CNC(=O)[C@@H]5CSSC[C@H](N)C(=O)N[C@@H](Cc6ccc(O)cc6)C(=O)N6CCC[C@H]6C(=O)NCC(=O)N[C@@H](CCC(N)=O)C(=O)N6CCC[C@H]6C(=O)NCC(=O)N5)C(=O)N[C@@H](CO)C(=O)N[C@@H](CCCNC(=N)N)C(=O)N5CCC[C@H]5C(=O)N[C@@H](CC(N)=O)C(=O)N[C@@H](Cc5ccc(O)cc5)C(=O)N[C@@H](CSSC[C@H](NC(=O)[C@H](Cc5c[nH]c6ccccc56)NC(=O)[C@H](Cc5c[nH]cn5)NC(=O)[C@H](CC(=O)O)NC(=O)[C@H](CO)NC(=O)CNC2=O)C(=O)N[C@@H](CC(=O)O)C(=O)N[C@@H](C)C(=O)N[C@@H](CO)C(=O)NCC(=O)N[C@@H](CC(=O)O)C(=O)N[C@@H](CCCNC(=N)N)C(=O)N4)C(=O)N[C@@H](CCC(=O)O)C(=O)NCC(=O)N[C@@H](C)C(=O)N[C@@H](CCCNC(=N)N)C(=O)N3)C(=O)N1)C(=O)O [Ueq 12-1],antibacterial activity (in words),Pseudomonas aeruginosa; up to 200 µM,no activity
same,MIC,Pseudomonas aeruginosa; [10],> 200 µM
same,effect on AITC-induced currents (in words),"TRPA1 [1]; 100 µM AITC, Figure 6F",same potentiating effect
same,potentiation of TRPA1 activation (in words),"TRPA1 [1]; 240 µM, induced by AITC",significantly potentiated
same,normal behavior in the open field test,mice [2],did not change the normal behavior
same,reduction of paw licking,mice [3]; [11],49%
same,reduction of time spent guarding,mice [3]; [11],43%
same,AITC-induced nocifensive behavior (in words),"mice [3]; 30 min before AITC (20 µL, 0.5%)",significantly reduced
same,"reduction of AITC paw edema, 2 h",mice [3]; 2 h after injection,39%
same,"reduction of AITC paw edema, 4 h",mice [3]; 4 h after injection,57%
same,potentiation of AITC induced TRPA1 Ca^2+ influx,TRPA1 [4],35 ± 10%
same,TRPA1 inward currents potentiation,TRPA1 [5]; [12],378 ± 65%
same,TRPA1 outward currents potentiation,TRPA1 [5]; [12],200 ± 23%
same,TRPA1 inward currents potentiation,TRPA1 [5]; [13],719 ± 98%
same,TRPA1 outward currents potentiation,TRPA1 [5]; [13],453 ± 104%
same,TRPA1 inward currents potentiation,TRPA1 [5]; [14],2559 ± 959%
same,TRPA1 outward currents potentiation,TRPA1 [5]; [14],835 ± 566%
same,potentiation of TRPA1 activation (in words),"TRPA1 [5]; 240 µM, induced by diclofenac",significantly potentiated
same,effect in trace at 750 μM,"TRPA1 [5]; 750 μM, Figure 6E",defunctionalization of TRPA1
same,"potentiation of TRPA1 inward currents, up to",TRPA1 [5]; [15],132–186%
same,"potentiation of TRPA1 outward currents, up to",TRPA1 [5]; [15],120–135%
same,response to agonist at high peptide concentration,TRPA1 [5]; above 750 µM,no standard response to agonist
same,effect at high concentrations on response of the receptor,TRPA1 [5]; high concentrations,completely blocked the response of the receptor
same,antibacterial activity (in words),Escherichia coli; up to 200 µM,no activity
same,MIC,Escherichia coli; [10],> 200 µM
same,"pain, paw edema, thermal hyperalgesia after paw injection",mice [6],"did not cause pain, paw edema or significant thermal hyperalgesia"
same,growth inhibition at 50 µM,[7]; 50 µM,significantly inhibited growth
same,concentrations at which the peptide is antibacterial,"[7]; 12.5 to 200 µM tested, Figure 5",≥ 50 µM
same,antibacterial activity (in words),"[7]; natural peptide, up to 200 µM",moderate activity
same,MIC,"[7]; natural peptide, lowest concentration with no bacterial growth, OD595, Mueller Hinton Broth, room temperature, 1.3−1.5 × 10^4 bacteria/mL, two parallels",50 µM
same,antibacterial activity (in words),Staphylococcus aureus,minor activity
same,agonistic / antagonistic activity on human TRPV3,human TRPV3,neither agonistic nor antagonistic activity
same,current caused by peptide alone in TRPA1-expressing oocytes,TRPA1 [8],did not cause any current
same,time to reversal of thermal hyperalgesia,"mice [9]; 0.2 mg/kg i.v. 24 h after CFA, hot plate 53 °C",≤ 30 min
same,effect on thermal hyperalgesia (in words),"mice [9]; 0.2 mg/kg i.v. 24 h after CFA, within 30 min",reversed thermal hyperalgesia
same,decrease of CFA paw edema,"mice [9]; 0.2 mg/kg i.v., 24 h after injection",27%
same,agonistic / antagonistic activity on rat TRPV1,rat TRPV1,neither agonistic nor antagonistic activity

# Where two headings read alike, the source gives them in different places.
